Assay outcomes deposited in PubChem BioAssay by Broad Institute.
UUG fidelity – modulators of start codon recognition fidelity in yeast; S. cerevisiae UUG-firefly luciferase reporter, luminescence/redox ratio; activity score, % at 18.7 µM; hit rate 0.13% among 350,000; AID 602363;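 active = replicate mean at a twofold rise or more, about +100% in these data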;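 note: firefly luciferase made from a UUG start codon reports start codon fidelity; reporter light over untreated wells divided by growth signal over untreated wells; some hits fall short of that in this replicate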
PDI inh – PDI (human) enzyme inhibition | 0.052% of 350,000 active | inhibition, % at 10 µM | P07237 | PDI insulin aggregation turbidity, A650, 90 min | AID 588391;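 active = mean inhibition across replicates of 30% or more, whatever share of single replicates reach that level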
ARNT TACC3 PPI – disrupts binding between human ARNT and TACC3; inhibition, % at 9.99 µM; AlphaScreen His-ARNT PAS-B/GST-TACC3 binding, luminescence; TACC3 fragment carries E629A point mutation; 0.66% of 390,000 active; Q9Y6A5;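 active = mean inhibition of replicates at least 50% and at least half of replicates each reaching 50%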
ERp5 block – inhibitors of human ERp5. AID 651711. 0.05% of 350,000 active. ERp5 insulin aggregation, absorbance 650 nm, 90 min. inhibition, % at 9.99 µM;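 active = mean replicate inhibition above about 25%, with every replicate also reaching it, limit read from the data, passing the limit was not always enough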
PglD inh – PglD (C. jejuni) enzyme inhibition. purified PglD enzyme, DTNB colorimetric CoA detection. inhibition, % at 12.5 µM. 0.098% of 360,000 active. AID 602405; in the data active = inhibition above about 16%, passing the limit was not always enough
FGF22 binding – FGF22 (human) thermal shift binding. AID 651658. recombinant FGF22 thermal shift, SYPRO orange fluorescence; percent of sucrose octasulfate shift, DMSO zero. 1.5% of 340,000 active. activity (Tm shift, normalised), % at 9.99 µM;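 active = mean Tm shift, scaled 0 neutral to 100 positive control, at about 1.3% or above, every replicate too, limit read from the data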
Hits are given with their value; i = inactive; nt = not tested or not shown. Sampled rows, rich in hits. Any-hit rate of the full collection: about 1.9%.

SMILES	UUG fidelity	PDI inh	ARNT TACC3 PPI	ERp5 block	PglD inh	FGF22 binding
O=C(Nc1ccc2c(c1)[C@H]1C[C@@H](CC(=O)N3CCCCC3)O[C@@H](CO)[C@H]1O2)c1cccnc1	i	nt	i	i	i	i
CCOC(=O)N1CCN(C(=O)C2CCN(S(=O)(=O)c3ccc(F)cc3)CC2)CC1	nt	i	i	i	nt	43.2
Cc1c(O)ccc2c(CN3CCN(CCO)CC3)cc(=O)oc12	nt	53.3	i	nt	nt	nt
Cc1c(O)ccc2c(CN3CCOCC3)cc(=O)oc12	i	i	i	i	i	i
CC=Cc1ccc2n(c1=O)C[C@@H]1[C@@H](CO)[C@H](C(=O)N3CCC(Cc4ccccc4)CC3)N(C)[C@H]21 (mixture of isomers)	nt	nt	i	i	i	i
CCOC(=O)c1c(NC(=O)CSc2ncccn2)sc2c1CCN(Cc1ccccc1)C2	nt	i	nt	i	nt	42.9
CCOC(=O)NC(=O)CSc1nnc(C2CC2)n1Cc1ccco1	nt	i	i	i	nt	43.1
CCCC#Cc1ccc2c(c1)O[C@H](CN(C)Cc1ccccc1)[C@@H](C)CN([C@H](C)CO)S2(=O)=O	i	nt	i	i	i	i
Cc1noc(NS(=O)(=O)c2ccc(NC(=O)CSc3nnc4c(n3)[nH]c3ccccc34)cc2)c1C	nt	i	70.6	nt	nt	nt
CO[C@@H]1CN(C)C(=O)c2cc(NC(=O)C3CCCC3)ccc2OC[C@H](C)N(CC2CC2)C[C@H]1C	i	nt	i	i	i	i
CC(=O)N(c1cc(C)ccc1C)c1ccccc1[N+](=O)[O-]	i	i	i	i	i	43.0
CC(C)NC(=O)N(C)C[C@H]1Oc2ccc(NC(=O)C3CCCCC3)cc2CC(=O)N([C@H](C)CO)C[C@H]1C	i	nt	i	i	i	i
O=C(N/N=C/c1ccc(Sc2ccccn2)o1)c1cc2ccccc2cc1O	i	i	i	i	i	i
O=C(CCc1ccccc1O)N/N=C/c1ccc(Sc2cccc3cccnc23)o1	i	i	66.0	nt	i	nt
COc1cccc(CN2[C@@H](CO)[C@@H](c3ccccc3)C23CN(C(=O)C2CCOCC2)C3)c1	nt	nt	nt	i	nt	i
O=C1C(Cl)=C(NCCN2CCOCC2)C(=O)c2ccccc21	i	i	65.9	i	i	i
CC(c1ccon1)N(C)Cc1c(C(=O)N(C)Cc2ccccc2)nc2ccccn12 (stereo not given)	i	i	i	i	i	43.1
C[C@@H]1CCCCO[C@@H](CN(C)C(=O)Cc2ccccc2)[C@@H](C)CN([C@H](C)CO)C(=O)c2cc(NS(=O)(=O)c3ccccc3)ccc2O1	nt	nt	nt	i	nt	i
COc1ccc(CNCC(=O)Nc2cc(C)nn2-c2nc(C)cc(C)n2)cc1OC	nt	nt	nt	i	nt	43.6
Cc1ccc(N(CC(=O)N/N=C/c2cccnc2)S(=O)(=O)c2ccccc2)cc1	nt	i	nt	i	nt	43.6
O=C(CNS(=O)(=O)N1CCOCC1)N/N=C/c1cccnc1	i	i	i	i	i	43.6
O=C(Cn1cnc2ccccc21)N/N=C/c1cccnc1	nt	i	i	i	nt	43.2
Cc1ccc(/C=N/NC(=O)Cn2cnc3ccccc32)cc1	i	i	i	i	i	i
COc1ccccc1/C=N/NC(=O)CCn1cnc2ccccc21	nt	i	nt	i	nt	43.8
O=C(/C=C/c1ccccc1)NCC(=O)N/N=C\c1cccnc1	nt	i	nt	i	nt	i
SMILES	UUG fidelity	PDI inh	ARNT TACC3 PPI	ERp5 block	PglD inh	FGF22 binding
O=C1CN(S(=O)(=O)Cc2ccccc2)C[C@H]2[C@H](c3ccc(C#Cc4cccnc4)cc3)[C@H](CO)N12	nt	nt	nt	i	nt	nt
CC=Cc1ccc2n(c1=O)C[C@@H]1[C@@H](CO)[C@H](C(=O)NCC)N(C(=O)c3cccnc3)[C@H]21 (mixture of isomers)	nt	nt	i	i	i	i
O=C(Cc1ccccc1)N1CC[C@@H]2[C@H]1c1cc(Br)ccc1N[C@@H]2CO	i	nt	i	i	i	i
O=C(Cn1cnc2ccccc21)Nc1cccc([N+](=O)[O-])c1	nt	i	i	i	nt	i
Cc1ccc(NC(=O)Cn2cnc3ccccc32)cc1C	nt	i	i	i	nt	43.2
CC(=O)c1ccc(NC(=O)CSc2nc(C)cc(C)c2C(N)=O)cc1	i	i	i	i	i	42.9
C[C@H](NC(=O)C[C@@H]1C[C@H]2c3cc(NC(=O)NC4CCCCC4)ccc3O[C@H]2[C@@H](CO)O1)c1ccccc1	nt	nt	i	i	i	i
OC1(CC#CCN2CCCCC2)c2ccccc2-c2ccccc21	nt	i	i	i	nt	i
OC1(C#CCCN2CCCCC2)c2ccccc2-c2ccccc21	i	i	i	i	i	44.0
COc1cccc(NC(=O)N[C@@H]2C=C[C@H](CC(=O)Nc3ccccc3)O[C@@H]2CO)c1	nt	nt	nt	i	nt	nt
O=C(C[C@H]1C/C=C\CC[C@H](Cc2ccc(F)cc2)C(=O)O[C@@H](c2ccccc2)CNC1=O)N[C@H](CO)Cc1ccccc1	i	i	i	i	i	i
O=C(C[C@H]1C/C=C\CC[C@H](Cc2ccc(F)cc2)C(=O)O[C@@H](c2ccccc2)CNC1=O)N[C@@H](CO)Cc1ccccc1	i	i	i	i	i	44.1
CC(C)C[C@H](NC(=O)Nc1cccc(Br)c1)C(=O)O	i	i	i	i	nt	44.2
CC(C)(C)c1ccc(S(=O)(=O)NC(=O)C2(C)CCN2C(=O)Cc2cccc3ccccc23)cc1 (stereo not given)	i	i	nt	i	i	6.1
Fc1ccccc1COc1ccc2ccccc2c1CNc1nn[nH]n1	i	i	i	i	i	43.0
CCC(=O)N1[C@@H]2c3ccc(-c4cccnc4)c(=O)n3C[C@H]1[C@H](CO)[C@H]2C(=O)NC1CCC1	nt	nt	i	i	i	i
COc1cccc(/C=C/C(=O)OCC(=O)NC2CC2)c1OC	i	i	i	i	i	i
COc1cccc(/C=C/C(=O)OCC(=O)Nc2ccc(N3CCOCC3)cc2)c1OC	nt	i	i	i	nt	43.9
O=S(=O)(c1ccccc1)N1CC[C@@H]2[C@H](CO)Nc3ccc(C#Cc4ccccc4F)cc3[C@@H]21	i	nt	i	i	i	i
CCOC(=O)C1(CC2CC2)CCN(Cc2cn(C)c3ccccc23)CC1	nt	i	nt	i	nt	44.0
CCOC(=O)C1(Cc2ccccc2)CCN(Cc2cn(CC(=O)OC)c3ccccc23)CC1	nt	i	nt	i	nt	i
CCC/C(=C1/c2ccccc2C(=O)N1c1ccccc1)c1ccc2c(c1)OCO2	i	i	i	i	i	i
CCC/C(=C1/c2ccccc2C(=O)N1c1ccccc1)c1c(C)noc1C	nt	nt	nt	i	nt	42.9
Cn1c(SSc2ccc(-c3cccnc3)n2C)ccc1-c1cccnc1	i	i	17.1	i	i	i
O=C(C[C@@H]1CC[C@@H]2[C@H](COC[C@H](O)CN2C(=O)c2ccccc2)O1)Nc1ccc(-c2ccccc2)cc1	nt	nt	i	i	i	nt
COc1cc(-c2nnc(NC(=O)CS(=O)(=O)c3ccc(C)cc3)o2)cc(OC)c1OC	i	i	45.3	i	i	i
COc1cc(-c2nnc(NC(=O)CS(=O)(=O)c3ccc(F)cc3)o2)cc(OC)c1OC	i	i	53.7	i	i	i
Oc1ccc2ccccc2c1C=NC12CN3CCN(CN(C3)C1)C2	i	i	67.2	nt	i	nt
